Results taken from PubChem BioAssay (NCI).
The entries are a selection whose mix differs from that of the whole data set. Some structures have more than one record in an assay (separate samples or runs), and their calls can disagree. Calls of active or inactive are those of the source. Cut-off read from the data, not from the text of the source: active = growth inhibition above about 70%; inactive = the rest.

Experiment: NCI Yeast Anticancer Drug Screen. Data for the sgs1 strain (AID 173);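 note: 0% = growth of vehicle-only control cultures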
Settings: S. cerevisiae sgs1 mutant, active compounds read high
Experimental: Growth inhibition of yeast strains with defined genetic alterations is measured as a screen for potential anti-cancer activity. Selected strains with alterations in DNA damage repair or cell cycle control were exposed to compounds and growth inhibition was measured relative to vehicle treated controls. The strain used in this assay is sgs1

Compound: COc1ccc([N+](=O)[O-])c(C[N+](C)(CCCl)CCCl)c1
- growth inhibition (at 1.2 µM): inactive: 6%
- growth inhibition (at 3.7 µM): inactive: 14%
- growth inhibition (at 11.0 µM): inactive: 15%
- growth inhibition (at 33.0 µM): inactive: 35%
- growth inhibition (at 100.0 µM): active: 72%

Compound: Cc1cccc(C[N+](C)(CCCl)CCCl)c1[N+](=O)[O-]
- growth inhibition (at 1.2 µM): inactive: 19%
- growth inhibition (at 3.7 µM): inactive: 32%
- growth inhibition (at 11.0 µM): inactive: 55%
- growth inhibition (at 33.0 µM): active: 81%
- growth inhibition (at 100.0 µM): active: 95%

Compound: ClCCN1CCCCC1CCl (stereo not given)
- growth inhibition (at 1.2 µM): inactive: -2%
- growth inhibition (at 3.7 µM): inactive: 1%
- growth inhibition (at 11.0 µM): inactive: 13%
- growth inhibition (at 33.0 µM): inactive: 43%
- growth inhibition (at 100.0 µM): active: 80%

Compound: Cc1ccc([N+](=O)[O-])c(C[N+](C)(CCCl)CCCl)c1
- growth inhibition (at 1.2 µM): inactive: 16%
- growth inhibition (at 3.7 µM): inactive: 31%
- growth inhibition (at 11.0 µM): inactive: 58%
- growth inhibition (at 33.0 µM): active: 85%
- growth inhibition (at 100.0 µM): active: 96%

Compound: Cn1cnc([N+](=O)[O-])c1C[N+](C)(CCCl)CCCl
- growth inhibition (at 1.2 µM): inactive: 17%
- growth inhibition (at 3.7 µM): inactive: 29%
- growth inhibition (at 11.0 µM): inactive: 55%
- growth inhibition (at 33.0 µM): active: 75%
- growth inhibition (at 100.0 µM): active: 87%

Compound: COc1ccc(C[N+](C)(CCCl)CCCl)c([N+](=O)[O-])c1
- growth inhibition (at 1.2 µM): inactive: 8%
- growth inhibition (at 3.7 µM): inactive: 9%
- growth inhibition (at 11.0 µM): inactive: 18%
- growth inhibition (at 33.0 µM): inactive: 27%
- growth inhibition (at 100.0 µM): inactive: 31%
